Our source for the Ki values is US9447108B2 (SZEGEDI TUDOMÁNYEGYETEM, priority 2013, dated 2016).

Protein sequences, listed by entry. Tags and fused reporters are not part of them.
UniProt P33535, whole entry: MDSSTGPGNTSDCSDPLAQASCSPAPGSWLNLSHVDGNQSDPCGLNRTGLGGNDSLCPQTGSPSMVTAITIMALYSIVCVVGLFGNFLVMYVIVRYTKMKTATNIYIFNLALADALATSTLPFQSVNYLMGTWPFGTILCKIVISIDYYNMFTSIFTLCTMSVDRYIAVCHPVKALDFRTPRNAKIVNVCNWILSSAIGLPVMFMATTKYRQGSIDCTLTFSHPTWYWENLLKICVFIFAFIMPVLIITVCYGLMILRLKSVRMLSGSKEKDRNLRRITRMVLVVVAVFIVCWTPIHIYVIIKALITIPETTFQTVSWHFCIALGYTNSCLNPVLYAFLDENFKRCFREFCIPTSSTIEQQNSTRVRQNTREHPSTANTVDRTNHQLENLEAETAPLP

As a reminder, the Ki is a dissociation constant, usually derived from enzyme kinetics or from competition with a known ligand.

For the assay, the target named is T1, μ-opioid receptors (Rattus norvegicus, UniProt P33535).
T1 construct: A crude membrane fraction was prepared from Wistar rat brains and spinal cords; from tissue; host or cells: Wistar rat brain (without cerebellum), crude membrane fraction
The experiment in a line: Receptor binding assay, [3H]DAMGO displacement in rat brain membranes.

Each structure is given as a SMILES string.

Molecule `C[C@@H](NC(=O)[C@@H](N)Cc1ccc(O)cc1)C(=O)NCC(=O)N(C)[C@@H](Cc1ccccc1)C(=O)NCCO` [DAMGO, (2S)-2-[[2-[[(2R)-2-[[(2S)-2-amino-3-(4-hydroxyphenyl)propanoyl]amino]propanoyl]amino]acetyl]-methylamino]-N-(2-hydroxyethyl)-3-phenylpropanamide, reference compound] showed an inhibition constant (Ki) of 1 ± 0.2 nM.
